Measured values from patent publication US10364256B2 (GlaxoSmithKline Intellectual Property Development Limited, priority 2015, dated 2019).

Sequences of proteins named here, by UniProt entry; tags and fusion partners are left off. Residues count along the entry.
UniProt Q14145, whole entry: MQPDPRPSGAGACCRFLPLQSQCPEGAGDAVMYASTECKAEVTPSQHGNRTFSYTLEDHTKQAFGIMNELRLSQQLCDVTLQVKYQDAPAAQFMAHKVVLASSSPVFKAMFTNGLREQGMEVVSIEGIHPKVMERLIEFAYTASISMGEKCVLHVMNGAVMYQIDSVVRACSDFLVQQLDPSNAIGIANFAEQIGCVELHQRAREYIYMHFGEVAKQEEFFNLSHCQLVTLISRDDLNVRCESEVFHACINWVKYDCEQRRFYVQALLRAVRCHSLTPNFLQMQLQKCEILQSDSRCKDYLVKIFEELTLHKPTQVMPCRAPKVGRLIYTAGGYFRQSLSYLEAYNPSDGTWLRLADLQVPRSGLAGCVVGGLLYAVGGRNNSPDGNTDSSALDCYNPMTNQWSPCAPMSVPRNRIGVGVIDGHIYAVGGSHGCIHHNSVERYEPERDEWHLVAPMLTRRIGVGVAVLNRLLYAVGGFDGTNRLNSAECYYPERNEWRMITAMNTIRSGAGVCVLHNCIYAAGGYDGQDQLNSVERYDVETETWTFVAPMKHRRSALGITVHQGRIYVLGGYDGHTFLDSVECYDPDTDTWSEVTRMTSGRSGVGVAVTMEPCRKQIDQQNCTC
UniProt Q14145, 321-609 limits assumed: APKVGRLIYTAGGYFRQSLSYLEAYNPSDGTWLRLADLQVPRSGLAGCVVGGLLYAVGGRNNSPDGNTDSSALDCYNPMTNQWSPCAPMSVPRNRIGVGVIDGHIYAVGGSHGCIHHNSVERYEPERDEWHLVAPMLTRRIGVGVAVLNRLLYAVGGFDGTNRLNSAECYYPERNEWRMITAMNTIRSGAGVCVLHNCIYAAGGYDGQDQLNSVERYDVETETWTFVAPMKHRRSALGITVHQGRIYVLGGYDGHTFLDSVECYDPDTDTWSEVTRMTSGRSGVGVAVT

Assays:
[1] = test system: NQO1 specific enzyme activity in BEAS-2B cells (marker for NRF2 activation); assay: BEAS-2B NQO1 MTT Assay; type: cell-based; conditions: read-out: EC50 (NQO1 specific enzyme activity induction), compound incubated 48 hours
Excerpt: BEAS-2B NQO1 MTT Assay NAD(P)H:quinone oxidoreductase 1 (NQO1), also called DT diaphorase, is a homodimeric FAD-containing enzyme that catalyzes obligatory NAD(P)H-dependent two-electron reductions of quinones and protects cells against the toxic and neoplastic effects of free radicals and reactive oxygen species arising from one-electron reductions. The transcription of NQO1 is finely regulated by NRF2, and thus NQO1 activity is a good marker for NRF2 activation. On day one, frozen BEAS-2B cells (ATCC) are thawed in a water bath, counted, and re-suspended at a concentration of 250,000 cells/mL. Fifty microliters of cells are plated in 384 well black clear-bottomed plates. Plates are incubated at 37° C., 5% CO2 overnight. On day two, plates are centrifuged and 50 nL of compound or controls are added to the cells. Plates are then incubated at 37° C., 5% CO2 for 48 hours. […] Fifty microliters of MTT cocktail is added to each well, plate is centrifuged, and analyzed on an Envision plate reader (Perkin Elmer) using Absorbance 570 nm label for 30 minutes. Product formation is measured kinetically and the pEC50 of NQO1 specific activity induction is calculated by plotting the change in absorbance (Delta OD/min) versus the log of compound concentration followed by 3-parameter fitting. pEC50 is the negative log of the EC50.

[2] = target: Keap1 Kelch domain (321-609) / TAMRA-labeled 16mer NRF2 peptide (ETGE motif) (Homo sapiens, UniProt Q14145); assay: NRF2-Keap1 FP Assay (Keap1 Kelch fluorescence polarization); type: binding; conditions: read-out: IC50 (Keap1/Nrf2 FP assay); 20 nM Keap1 (321-609), 8 nM Tamra labeled peptide
Excerpt: One model for the NRF2-Keap1 interaction is through two binding sites in the Neh2 domain on NRF2. The two sites are referred to as the DLG binding motif (latch domain, uM affinity) and the ETGE binding motif (hinge domain, nM affinity). The Keap1 protein consists of an N-terminal region (NTR), a broad complex, tramtrack, and brick a′ brac domain (BTB), an intervening region (IVR), a double glycine repeat domain (DGR or Kelch), and a C-terminal region. The DLG and ETGE motifs of NRF2's Neh2 domain bind to the Kelch domain of Keap1 at different affinities. In the Keap1 Kelch fluorescence polarization (FP) assay, a TAMRA-labeled 16mer peptide (AFFAQLQLDEETGEFL) containing the ETGE motif of NRF2 and the Kelch domain (321-609) of Keap1 is used. […]
100 nl of 100× compound dose response curves (serial 3-fold dilutions) in DMSO are stamped using an Echo liquid handling system (Labcyte) into 384-well low volume black assay plates (Greiner, #784076), with DMSO in columns 6 and 18. […] The plates are spun at 500 rpm for 1 min, incubated for 1 hr at room temperature, and read on an Analyst GT (Molecular Devices) equipped with excitation (530/25 nm) and emission (580/10 nm) filters designed for Tamra probes. […] Fluorescence measurements, represented as mP, are used in the transformation of the data. […]

[3] = target: full length Keap1 protein / full length NRF2 protein (Homo sapiens, UniProt Q14145); assay: NRF2-Keap1 TR-FRET Assay; conditions: read-out: IC50 (Nrf2/Keap1 TR-FRET assay); 25 nM Keap1-FlagHis and 50 nM biotin-NRF2 added
Excerpt: In the NRF2-Keap1 TR-FRET (time-resolved fluorescence resonance energy transfer) assay, full length NRF2 protein and full length Keap1 protein (Keap1 exists a dimer) are used. The assay detects the ability of compound to displace the binding of FlagHis-tagged Keap1 with biotinylated, Avi-tagged NRF2 protein. Biotin-NRF2 binds to streptavidin-europium (a component of the detection mix) and Keap1-FlagHis is recognized by anti-Flag APC (allophycocyanin) antibody (also a component of the detection mix). If binding occurs between the two proteins, there will be an energy transfer from the Eu+3 (donor) at 615 nm to the APC (acceptor) at 665 nm. […]
One hundred nanoliters of 100× compound dose response curves (serial 3-fold dilutions) in DMSO are stamped using an Echo liquid handling system (Labcyte) into 384-well, low volume, black assay plates (Greiner, #784076), with DMSO in columns 6 and 18. […] Plates are spun at 500 rpm for 1 minute, incubated for 1 hour at RT, and read on an Envision plate reader using a 320 nm excitation filter and 615 nm and 665 nm emission filters. Compound response (% inhibition) and potency (pIC50) are calculated based on the ratio of the two emissions (665 nm/615 nm) and then the transformed data is normalized against controls in the assay (control 1=1% DMSO in the presence of NRF2 and Keap1 protein and control 2=1% DMSO in the absence of protein). […]

## CCCC1CCCCN1C(=O)c1cccc(-c2cccc(-n3ncc(C(=O)O)c3C(F)(F)F)c2)c1 (stereo not drawn)
[1]
  EC50: 1000 to 10000 nM
[2]
  IC50: 10 to 100 nM
[3]
  IC50: 100 to 1000 nM
